# In patent US12329773B2, “Oxygen reactive polymers for treatment of traumatic brain injury” (University of Washington, priority 2015, dated 2025):
# Test: MR imaging of uptake, retention and clearance in CCI mouse model of TBI
# Set-up: species or system mice
# Conditions: in vivo
# Protocol: 8-10 Week old C57/B6 mice were induced with 4% isoflurane gas via inhalation and maintained at 1.5-2%, then placed upon a warm heating pad set to 100° F. to maintain body temperature. Prior to surgery, hair on the top of the skull was trimmed and epilated via shears and Nair (Church and Dwight Co., Inc., Princeton, NJ). Lidocaine (0.05 mL at a 5 mg/mL) and bupivacaine (0.05 mL at 0.3 mg/mL) were injected subcutaneously under the scalp. After 5 min to allow anesthetic to absorb, a midline incision was made in the skin from lambda to bregma. Fascia and skin were retracted and a small hole drilled using a high speed surgical drill over the left frontoparietal cortex (3 mm anterior and 2 mm left from lambda), and a 3 mm circular cranial window created using rongeurs. A pneumatically-operated controlled cortical impactor (CCI) with a 3 mm convex tip was used to impact the brain normal to the dura surface at a depth of 1 mm at 6 m/s and remained in the brain for 150 ms. Incisions were closed using skin glue and mice given an intraperitoneal injection of buprenorphine (0.1 mg/kg). Mice were monitored under a heat lamp until awake. Within 15 min post-surgery ORP were injected through the tail vein at 100 mg/mL in PBS. […]
substance,measurement,value
poly(MEMcoO950coMNHS) [ORP],"signal enhancement in muscle, cortex and striatum",eliminated by 24 hrs
